{
  "source": "patent US9433687B2",
  "about": "“Anti-Notch3 antibodies and antibody-drug conjugates” (Pfizer Inc., priority 2012, dated 2016)",
  "molecules": {"B1": {"name": "hu75-vc0101: hu75 conjugated to vc0101 linker-payload (conjugate)", "heavy": "EVQLVESGGGLVQPGGSLRLSCAASGYAFTDYWMTWVRQAPGKGLEWVAEISPNSGGTNFNEKFKGRFTISVDNAKNSLYLQMNSLRAEDTAVYYCARGEIRYNWFAYWGQGTLVTVSSASTKGPSVFPLAPSSKSTSGGTAALGCLVKDYFPEPVTVSWNSGALTSGVHTFPAVLQSSGLYSLSSVVTVPSSSLGTQTYICNVNHKPSNTKVDKKV[letters of human IgG1 Fc omitted]", "light": "DIQMTQSPSSLSASVGDRVTITCKASQNVGNNIAWYQQKPGKAPKLLIYYASNRYTGVPSRFSGSGYGTDFTLTISSLQPEDFATYYCQRLYNSPFTFGGGTKVEIKRTVAAPSVFIFPPSDEQLKSGTASVVCLLNNFYPREAKVQWKVDNALQSGNSQESVTEQDSKDSTYSLSSTLTLSKADYEKHKVYACEVTHQGLSSPVTKSFNRGEC"}},
  "test_system": "HCC2429 lung xenografts",
  "test": "HCC2429 lung xenograft model (ADCs)",
  "assay_type": "in vivo, mouse",
  "method": "Similar in vivo experiments were performed with the HCC2429 lung cancer cell line as described above. To generate xenografts, nude (Nu/Nu) female mice were implanted subcutaneously with 3.5×10^6 HCC2429 cells in 50% Matrigel (BD Biosciences).\nThe HCC2429 lung model was also dosed intravenously Q4d×4 with PBS vehicle, rat-human chimeric anti-Notch3 ADCs and control huNeg-8.8 ADCs, at a dose of 5 mg/kg as provided in FIG. 16A.",
  "data": [
    {"molecule": "B1", "values": [
      {"measurement": "tumor volume", "setting": "Day 1, 0.3 mg/kg iv Q4dx4", "value": 524, "unit": "mm^3"},
      {"measurement": "tumor volume", "setting": "Day 1, 1 mg/kg iv Q4dx4", "value": 548, "unit": "mm^3"},
      {"measurement": "tumor volume", "setting": "Day 1, 3 mg/kg iv Q4dx4", "value": 498, "unit": "mm^3"},
      {"measurement": "tumor volume", "setting": "Day 3, 0.3 mg/kg iv Q4dx4", "value": 713, "unit": "mm^3"},
      {"measurement": "tumor volume", "setting": "Day 3, 1 mg/kg iv Q4dx4", "value": 753, "unit": "mm^3"},
      {"measurement": "tumor volume", "setting": "Day 3, 3 mg/kg iv Q4dx4", "value": 498, "unit": "mm^3"},
      {"measurement": "tumor volume", "setting": "Day 6, 0.3 mg/kg iv Q4dx4", "value": 1078, "unit": "mm^3"},
      {"measurement": "tumor volume", "setting": "Day 6, 1 mg/kg iv Q4dx4", "value": 1096, "unit": "mm^3"},
      {"measurement": "tumor volume", "setting": "Day 6, 3 mg/kg iv Q4dx4", "value": 469, "unit": "mm^3"},
      {"measurement": "tumor volume", "setting": "Day 8, 0.3 mg/kg iv Q4dx4", "value": 1499, "unit": "mm^3"},
      {"measurement": "tumor volume", "setting": "Day 8, 1 mg/kg iv Q4dx4", "value": 1428, "unit": "mm^3"},
      {"measurement": "tumor volume", "setting": "Day 8, 3 mg/kg iv Q4dx4", "value": 407, "unit": "mm^3"},
      {"measurement": "tumor volume", "setting": "Day 10, 0.3 mg/kg iv Q4dx4", "value": 1830, "unit": "mm^3"},
      {"measurement": "tumor volume", "setting": "Day 10, 1 mg/kg iv Q4dx4", "value": 1611, "unit": "mm^3"},
      {"measurement": "tumor volume", "setting": "Day 10, 3 mg/kg iv Q4dx4", "value": 370, "unit": "mm^3"},
      {"measurement": "tumor volume", "setting": "Day 13, 0.3 mg/kg iv Q4dx4", "value": 2408, "unit": "mm^3"},
      {"measurement": "tumor volume", "setting": "Day 13, 1 mg/kg iv Q4dx4", "value": 1803, "unit": "mm^3"},
      {"measurement": "tumor volume", "setting": "Day 13, 3 mg/kg iv Q4dx4", "value": 273, "unit": "mm^3"},
      {"measurement": "tumor volume", "setting": "Day 15, 1 mg/kg iv Q4dx4", "value": 1871, "unit": "mm^3"},
      {"measurement": "tumor volume", "setting": "Day 15, 3 mg/kg iv Q4dx4", "value": 298, "unit": "mm^3"},
      {"measurement": "tumor volume", "setting": "Day 17, 1 mg/kg iv Q4dx4", "value": 1948, "unit": "mm^3"},
      {"measurement": "tumor volume", "setting": "Day 17, 3 mg/kg iv Q4dx4", "value": 250, "unit": "mm^3"},
      {"measurement": "tumor volume", "setting": "Day 20, 3 mg/kg iv Q4dx4", "value": 177, "unit": "mm^3"},
      {"measurement": "tumor volume", "setting": "Day 23, 3 mg/kg iv Q4dx4", "value": 160, "unit": "mm^3"},
      {"measurement": "tumor volume", "setting": "Day 27, 3 mg/kg iv Q4dx4", "value": 174, "unit": "mm^3"},
      {"measurement": "tumor volume", "setting": "Day 30, 3 mg/kg iv Q4dx4", "value": 196, "unit": "mm^3"},
      {"measurement": "tumor volume", "setting": "Day 34, 3 mg/kg iv Q4dx4", "value": 295, "unit": "mm^3"},
      {"measurement": "tumor volume", "setting": "Day 37, 3 mg/kg iv Q4dx4", "value": 433, "unit": "mm^3"},
      {"measurement": "tumor volume", "setting": "Day 41, 3 mg/kg iv Q4dx4", "value": 606, "unit": "mm^3"},
      {"measurement": "tumor volume", "setting": "Day 45, 3 mg/kg iv Q4dx4", "value": 836, "unit": "mm^3"},
      {"measurement": "tumor volume", "setting": "Day 49, 3 mg/kg iv Q4dx4", "value": 732, "unit": "mm^3"},
      {"measurement": "tumor volume", "setting": "Day -1, 0.3 mg/kg iv Q4dx4", "value": 247, "unit": "mm^3"},
      {"measurement": "tumor volume", "setting": "Day -1, 1 mg/kg iv Q4dx4", "value": 246, "unit": "mm^3"},
      {"measurement": "tumor volume", "setting": "Day -1, 3 mg/kg iv Q4dx4", "value": 245, "unit": "mm^3"}
    ]}
  ]
}
